One data set deals with mice. The note with it: literature or earlier results; route as stated; cited from earlier work.
For data set [1], the system named is SNI-induced allodynia in mice. The data set can be described thus: Spared nerve injury (SNI)-induced mechanical allodynia, electronic von Frey. Particulars: subcutaneous, 10-14 days after SNI surgery.

Each structure is given as a SMILES string.

Take `C[C@]12N[C@H](Cc3ccccc31)c1ccccc12` [MK801]: the “impairment of rotarod performance / motor function” value in the data set on mice is given as “significant reduction in the rotarod assay in nerve-injured mice”.

On to `CN1CC[C@]23c4c5ccc(O)c4O[C@H]2c2[nH]c4ccccc4c2C[C@@]3(O)[C@H]1C5` [OMI (4), oxymorphindole], for which the “reversal of neuropathic allodynia” value in data set [1] was “transiently reversed the neuropathic allodynia in a dose-dependent manner”.

Regarding `CN(C)C(=O)C(CCN1CCC(O)(c2ccc(Cl)cc2)CC1)(c1ccccc1)c1ccccc1` [loperamide], the “reversal of neuropathic allodynia” value in data set [1] was “transiently reversed the neuropathic allodynia in a dose-dependent manner”.

Source of the values: US11529340B2 (priority 2016, dated 2022).
